Test results as given in US20020035061A1, “COMPOSITIONS AND METHODS FOR TREATING INFECTIONS USING CATIONIC PEPTIDES ALONE OR IN COMBINATION WITH ANTIBIOTICS” (priority 1996, published 2002).

Assays:
[1] = Acute single dose toxicity, intraperitoneal route, isotonic saline; assay type: in vivo; conditions: Swiss CD1 mice, 5 days
Experimental: In vivo toxicity of a peptide is measured through administration of a range of doses to animals, typically mice, by a route defined in part by the intended clinical use. The survival of the animals is recorded and LD50, LD90-100, and maximum tolerated dose (MTD) can be calculated to enable comparison of analogues. Indolicidin analogues less toxic than indolicidin are preferred.
The acute, single dose toxicity of various indolicidin analogues is tested in Swiss CD1 mice using various routes of administration. In order to determine the inherent toxicities of the peptide analogues in the absence of any formulation/delivery vehicle effects, the peptides are all administered in isotonic saline with the final pH between 6 and 7.
Intraperitoneal route. Groups of 6 mice are injected with peptide doses of between 80 and 5 mg/kg in 500 μl dose volumes. […] The LD50 values are calculated using the method of Reed and Muench (J. of Amer. Hyg. 27:493-497, 1938).

[2] = test system: mammalian red blood cells
[3] = In vitro lifetime of free peptide in plasma and blood; assay type: in vitro ADME, sheep; conditions: for apparent half-life of free peptide in blood: sheep plasma, 37° C., 100 μg/mL

Which LD50 [1] does the source give for ILKKWPWWPWRRK [MBI 11CN] here?
The LD50 was 34 mg/kg.

What about the LD90-100 [1] of the same sequence?
Its LD90-100 is 40 mg/kg.

And the MTD [1]?
The MTD was 20 mg/kg.

And the lysis [2]?
Its lysis is 3.2%.

What about the “red blood cell lysis” value [2] of the same sequence?
The value was “substantial lysis”.

And the “% Lysis” value ([2]; […], 37° C., 1 hour)?
The value was 0.8%.

What about the “peptide immediately released from formulation-peptide complex” value ([3]; formulation D, on addition to the blood) of the same sequence?
The value was “up to 50%”.

And the “apparent half-life of free peptide in blood” value ([3]; formulation C1)?
The value was 1.5 h.

And the “apparent half-life of free peptide in blood” value ([3]; formulation D)?
Its value is 1.5 h.

And the “resistance to plasma peptidases and proteases” value ([3]; sheep's blood)?
The value was “relatively resistant to plasma peptidases and proteases”.
